The list is not random: actives were taken first. Their share in the collection is about 1.3%.
SR-BI uptake up = enhances SR-BI lipid uptake from DiI-HDL; 0.096% of 320,000 active; CHO ldlA[mSR-BI] cells, DiI-HDL uptake fluorescence, 3 h; 100 = double the neutral-control signal; AID 504775; activation, % at 12.5 µM;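 active = mean replicate activation of at least 60% and every replicate at or above 60%; inconclusive = mean or all-replicate condition met, but not both; inactive = mean below 60% and not all replicates reaching 60%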;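 note: 0% = median plate neutral-control signal and 100% = twice that signal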
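Assay system: LDL receptor-deficient CHO ldlA cells overexpressing murine SR-BI / Medium: BSA-supplemented, HEPES-buffered Ham's F12, pH 7.4 / Probe or stimulus: DiI-labelled HDL at 10 µg/mL final / Timing: compound with DiI-HDL co-incubation, 3 h at 37 °C / Technique: bottom-read cell fluorescence after medium removal, ex 550/em 595 nm / Measure: HDL uptake via cellular fluorescence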
UUG fidelity = modulators of yeast start codon fidelity, primary screen, whole organism, S. cerevisiae, single point, plate reader | S. cerevisiae UUG-firefly luciferase reporter, luminescence/redox ratio | activity score, % at 18.7 µM | hit rate 0.13% among 350,000;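 active = replicate mean at a twofold rise or more, about +100% in these data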;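 note: firefly luciferase made from a UUG start codon reports start codon fidelity; reporter light over untreated wells divided by growth signal over untreated wells; some hits fall short of that in this replicate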
SR-BI HDL uptake = mouse SR-BI HDL lipid transfer inhibition. ldlA[mSR-BI] CHO cells, DiI-HDL uptake fluorescence, 3 h. inhibition, % at 12.5 µM. 0.96% of 320,000 active. AID 488896;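 active = mean replicate inhibition of at least 70% and a set share of replicates each scoring 70 or more; inconclusive = meets just one of the two criteria; inactive = fails both criteria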;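 note: 0% = median of neutral control wells and 100% = median of positive control wells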
INS-1E GSIS act = GLuc luminescence reporter in INS-1E cells, primary screen for activators of glucose-dependent secretion of insulin; activation, % at 16.6 µM; 0.61% of 370,000 active; AID 743287; INS-1E GLuc reporter insulin secretion, 2-3 h;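 active = lowest replicate activation of at least 40%, so every replicate reaches that level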;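 note: 0% = median of neutral control wells and 100% = median of IBMX positive control wells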
An asterisk follows results filed as active; ? = inconclusive; . = no result given.

SMILES	SR-BI uptake up	UUG fidelity	SR-BI HDL uptake	INS-1E GSIS act
COc1ccc([N+](=O)[O-])cc1NC(=O)c1cn(-c2ccc(Cl)cc2)c(=O)c2ccccc12	-74.3	-19.1	74.3*	-4.3
COc1ccc([N+](=O)[O-])cc1NC(=S)NC(NC(=O)C(c1ccccc1)c1ccccc1)C(Cl)(Cl)Cl (stereo unspecified)	-87.0	-16.1	87.0*	.
COCCSc1ccccc1C(=O)Nc1ccc([N+](=O)[O-])cc1OC	-80.9	.	80.9*	-9.0
COc1ccc([N+](=O)[O-])cc1NC(=O)c1ccccc1N(C)S(C)(=O)=O	11.6	-15.6	-11.6	3.7
COc1ccc([N+](=O)[O-])cc1NC(=O)CC(c1ccccc1)c1ccccc1	-57.5	-17.1	57.5	-3.1
Cc1ccc(C(=O)Nc2ccc(C(=O)N/N=C/c3ccccn3)cc2)cc1	-76.0	-25.4	76.0*	31.4
Cc1cccc(/C=N/NC(=O)c2ccc(NC(=O)c3ccc(Cl)cc3)cc2)n1	-76.8	-23.6	76.8*	18.0
Cc1ccc(C(=O)Nc2ccc(C(=O)N/N=C/c3c[nH]c4ccccc34)cc2)cc1	-93.9	.	93.9*	17.3
O=C(N/N=C/c1c[nH]c2ccccc12)c1ccccc1	-2.3	-4.2	2.3	3.6
Cc1ccccc1C(=O)Nc1ccc(C(=O)N/N=C/c2ccc(F)cc2)cc1	-84.2	.	84.2*	21.2
O=C(N/N=C/c1ccccc1)c1ccc(NC(=O)c2ccc(F)cc2)cc1	.	-13.2	.	-1.9
CC=Cc1ccc2n(c1=O)C[C@@H]1[C@@H](CO)[C@H](C(=O)NC3CCC3)N(Cc3ccncc3)[C@H]21 (mixture of isomers)	.	.	.	7.2
CO[C@@H]1CN(C)C(=O)c2cc(NS(=O)(=O)c3cn(C)cn3)ccc2OC[C@H](C)N(CCC(F)(F)F)C[C@H]1C	.	.	.	1.2
CNC[C@@H]1OCCCC[C@@H](C)Oc2ccc(NS(=O)(=O)c3ccc(OC)cc3)cc2C(=O)N([C@@H](C)CO)C[C@H]1C	.	.	.	14.1
O=C(CC1CC1)N1[C@@H](CO)[C@@H](c2ccccc2)C12CN(Cc1cc(F)ccc1F)C2	.	.	.	-1.2
CCCCCCC(=O)Nc1ccc(C(=O)N/N=C/c2cccnc2)cc1	-76.1	.	?	16.0
CCC(=O)Nc1ccc(C(=O)N/N=C/c2ccc([N+](=O)[O-])cc2)cc1	-6.9	-5.4	6.9	12.3
CCC(=O)Nc1ccc(C(=O)N/N=C/c2cccnc2)cc1	7.1	-16.1	-7.1	43.6*
CCCCCCCC(=O)Nc1ccc(C(=O)N/N=C/c2cccc([N+](=O)[O-])c2)cc1	-86.9	-5.0	86.9*	.
O=C(CCSCCC(=O)NN=Cc1ccc(F)cc1)NN=Cc1ccc(F)cc1	-81.8	-10.8	81.8*	.
COc1ccc(NC(=O)Nc2cccc3c2O[C@@H](CN(C)Cc2ccc(Cl)c(Cl)c2)[C@H](C)CN([C@@H](C)CO)C3=O)cc1	.	-4.2	.	-23.4
C[C@]12CCC(O)CC1=CCC1C2CC[C@]2(C)/C(=N\NC(N)=S)CCC12 (stereo partly specified)	-90.4	-23.1	90.4*	13.9
COc1ccc(S(=O)(=O)NC2CCCCC2)cc1C	-1.0	10.1	1.0	42.9*
Cc1ccc(NC(=O)CN2C(=O)N/C(=C/c3ccc(C)s3)C2=O)cc1	8.0	-18.5	-8.0	98.9*
CCc1nc2c(OCc3ccc(OC)cc3)cccn2c1N(C)C(=O)c1ccco1	.	-21.8	.	.
CCc1nc2c(OCc3ccccc3C(=O)OC)cccn2c1N(C)C(=O)c1ccncc1	.	-23.6	.	116.6*
CCCCC(=O)N(C)c1c(CC)nc2c(OCc3ccc(C(F)(F)F)cc3)cccn12	.	-10.0	.	52.8*
CCc1nc2c(OCc3ccccc3C)cccn2c1N(C)C(=O)c1ccco1	.	-9.9	.	60.7*
CCc1nc2c(OCc3ccccc3C(=O)OC)cccn2c1N(C)C(=O)c1cccs1	.	-22.8	.	-19.5
CCOC(=O)N(C)c1c(CC)nc2c(OCc3ccc(C(F)(F)F)cc3)cccn12	.	-17.4	.	8.6
C[C@H](CO)N1C[C@H](C)[C@@H](CN(C)C(=O)c2ccccn2)Oc2ncc(C3=CCCCC3)cc2C1=O	.	-7.6	.	-2.1
C[C@@H]1CN(C)C(=O)c2cc(N)ccc2O[C@@H]1CN(C)C(=O)OC(C)(C)C	.	.	.	-5.2
CCCCCCCCCC[n+]1cccc2c3ccccc3ccc21	-18.6	.	18.6	97.0*
COc1cccc(C(=O)N2C[C@H]3[C@@H](c4ccccc42)[C@H](CO)N3Cc2ccccc2Cl)c1	.	8.1	.	-14.2
O=C(Nc1nnc(-c2ccc(F)cc2)s1)C1CCN(S(=O)(=O)c2ccc(Cl)cc2)CC1	4.8	.	-4.8	60.0*
c1ccc(Cn2nnc3c(N4CCc5ccccc54)ncnc32)cc1	14.5	-15.8	-14.5	86.2*
Cc1noc(/C=C/c2ccco2)c1S(=O)(=O)N1CCC(C(=O)NC(C)c2ccccc2)CC1 (stereo unspecified)	-81.4	-18.4	81.4*	10.5
CCN(CCN(C)C)C(=O)C1CCN(S(=O)(=O)c2c(C)noc2/C=C/c2ccccc2F)CC1	-24.9	-15.5	24.9	-3.7
CCOc1ccccc1/C=C/c1onc(C)c1S(=O)(=O)N1CCC(C(=O)N(CC)CC)CC1	-71.5	-1.6	71.5*	-27.6
Cc1noc(/C=C/c2ccco2)c1S(=O)(=O)N1CCC(C(=O)N(C)Cc2ccccc2)CC1	-6.4	-1.4	6.4	2.1

Given bar-delimited: seven of the compounds above
structure | SR-BI uptake up | UUG fidelity | SR-BI HDL uptake | INS-1E GSIS act
Cc1ccc(NC(=O)CN2C(=O)N/C(=C/c3ccc(C)s3)C2=O)cc1 | 8.0 | -18.5 | -8.0 | 98.9*
CCc1nc2c(OCc3ccc(OC)cc3)cccn2c1N(C)C(=O)c1ccco1 | . | -21.8 | . | .
CCc1nc2c(OCc3ccccc3C(=O)OC)cccn2c1N(C)C(=O)c1ccncc1 | . | -23.6 | . | 116.6*
CCCCC(=O)N(C)c1c(CC)nc2c(OCc3ccc(C(F)(F)F)cc3)cccn12 | . | -10.0 | . | 52.8*
CCc1nc2c(OCc3ccccc3C)cccn2c1N(C)C(=O)c1ccco1 | . | -9.9 | . | 60.7*
CCc1nc2c(OCc3ccccc3C(=O)OC)cccn2c1N(C)C(=O)c1cccs1 | . | -22.8 | . | -19.5
CCOC(=O)N(C)c1c(CC)nc2c(OCc3ccc(C(F)(F)F)cc3)cccn12 | . | -17.4 | . | 8.6

Going on with the list:
SMILES	SR-BI uptake up	UUG fidelity	SR-BI HDL uptake	INS-1E GSIS act
CCS(=O)(=O)N[C@H]1C=C[C@H](CC(=O)NC2Cc3ccccc3C2)O[C@H]1CO	.	-14.8	.	-3.8
CCC(=O)Nc1ccc(Cl)c(NC(=S)NC(=O)c2ccco2)c1	-95.6	.	95.6*	-6.3
C[C@H]1CN([C@@H](C)CO)C(=O)c2ccccc2-c2ccccc2CO[C@H]1CN(C)C(=O)Nc1ccccc1	.	-2.0	.	-9.0
C=CCN1C(=O)/C(=C2/Sc3ccc(OC)cc3N2C)SC1=Nc1ccccc1	-96.1	.	96.1*	0.3
CCN1C(=O)/C(=C2/Sc3ccc(OC)cc3N2C)SC1=Nc1cccc(O)c1	-94.1	-18.8	94.1*	-19.3
O=C(Nc1nnc(CCS(=O)(=O)c2ccc3ccccc3c2)s1)c1cccs1	21.0	16.7	-21.0	106.4*
CN(C)CCCNC(=O)[C@H]1[C@H](CO)[C@H]2Cn3c(ccc(C4=CCCCC4)c3=O)[C@@H]1N2Cc1cocn1	.	-1.7	.	27.9
COc1ccc2c(C)nc(Nc3nc(-c4ccccc4)cc(=O)[nH]3)nc2c1	-77.9	-15.4	77.9*	4.2
Cc1ccc2nc(Nc3nc(-c4ccccc4)cc(=O)[nH]3)nc(C)c2c1	12.0	5.0	-12.0	11.6
O=C(Nc1cc(F)ccc1F)N[C@H]1CC[C@H](CCn2cc(C3CC3)nn2)O[C@@H]1CO	.	.	.	-3.5
COc1ccc(CCN=Cc2c(C)[nH]n(-c3ccc([N+](=O)[O-])cc3)c2=O)cc1OC	8.1	.	-8.1	5.4
COc1ccc(-c2[nH]n(-c3ccc([N+](=O)[O-])cc3)c(=O)c2C=NCc2ccccc2)cc1	-87.4	.	87.4*	-2.3
O=C(C[C@H]1CC[C@H]2[C@@H](COC[C@@H](O)CN2CC2CC2)O1)NCc1ccc(Cl)cc1	.	.	.	5.9
CC(=O)c1cc2c(cc1C)CCCC2(C)C	.	-4.6	.	43.2*

Screening results deposited in PubChem by Broad Institute.
